Measurements reported in ChEMBL document CHEMBL4725311, “Discovery of potent, orally bioavailable in vivo efficacious antagonists of the TLR7/8 pathway” (Bioorg Med Chem Lett, 2020).

Assays:
Format in all cases: functional, organism-based
[1] = biological target: T1, Toll-like receptor 7 (Mus musculus) (UniProt P58681); assay: In vivo antagonist activity at TLR7 in 129Sv mouse assessed as inhibition of ssRNAR0006-induced IFNalpha release at 30 mg/kg, ip measured after 2 hrs
T1 sequence (whole entry): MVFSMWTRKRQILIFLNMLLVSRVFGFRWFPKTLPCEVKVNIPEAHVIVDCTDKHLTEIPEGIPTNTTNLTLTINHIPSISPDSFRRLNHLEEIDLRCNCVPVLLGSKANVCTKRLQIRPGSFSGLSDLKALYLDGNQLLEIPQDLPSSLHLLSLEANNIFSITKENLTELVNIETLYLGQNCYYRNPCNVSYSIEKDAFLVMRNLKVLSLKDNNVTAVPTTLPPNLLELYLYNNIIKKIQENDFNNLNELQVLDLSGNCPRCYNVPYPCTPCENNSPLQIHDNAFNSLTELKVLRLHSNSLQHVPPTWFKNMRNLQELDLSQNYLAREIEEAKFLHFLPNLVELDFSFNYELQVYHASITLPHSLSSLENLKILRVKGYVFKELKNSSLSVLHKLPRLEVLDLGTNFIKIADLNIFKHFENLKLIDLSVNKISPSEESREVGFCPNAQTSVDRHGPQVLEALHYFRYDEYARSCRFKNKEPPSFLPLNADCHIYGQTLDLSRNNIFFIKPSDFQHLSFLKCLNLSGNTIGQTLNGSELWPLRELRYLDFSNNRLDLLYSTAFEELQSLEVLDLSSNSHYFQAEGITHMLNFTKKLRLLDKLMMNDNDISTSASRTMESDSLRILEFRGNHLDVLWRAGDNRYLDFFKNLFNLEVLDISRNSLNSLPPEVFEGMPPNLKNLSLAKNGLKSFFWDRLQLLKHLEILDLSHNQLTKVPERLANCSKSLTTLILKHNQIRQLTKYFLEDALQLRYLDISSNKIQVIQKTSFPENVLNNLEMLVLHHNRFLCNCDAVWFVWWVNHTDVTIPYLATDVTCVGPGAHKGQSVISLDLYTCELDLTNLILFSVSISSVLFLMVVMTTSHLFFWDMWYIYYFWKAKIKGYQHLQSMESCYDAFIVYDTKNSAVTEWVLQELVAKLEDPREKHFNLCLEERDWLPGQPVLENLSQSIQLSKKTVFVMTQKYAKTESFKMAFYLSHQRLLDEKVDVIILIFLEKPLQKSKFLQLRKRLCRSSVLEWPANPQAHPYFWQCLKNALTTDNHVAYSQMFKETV

[2] = biological target: T1, Toll-like receptor 7 (Mus musculus); assay: In vivo antagonist activity at TLR7 in 129Sv mouse assessed as inhibition of ssRNAR0006-induced IL6 release at 30 mg/kg, ip measured after 2 hrs
[3] = biological target: T1, Toll-like receptor 7 (Mus musculus); assay: In vivo antagonist activity at TLR7 in 129Sv mouse assessed as inhibition of ssRNAR0006-induced IL6 release at 5 mg/kg, po measured after 2 hrs
[4] = biological target: T1, Toll-like receptor 7 (Mus musculus); assay: In vivo antagonist activity at TLR7 in 129Sv mouse assessed as inhibition of ssRNAR0006-induced IFNalpha release at 5 mg/kg, po measured after 2 hrs

SMILES | INH [1] [nM] | INH [2] [nM] | INH [3] [nM] | INH [4] [nM]
Cn1nc(-c2ccc(OCCCC3CCNCC3)c(F)c2)c2cnc(N)nc21 | 1540 | 1540 | – | –
Cn1nc(-c2ccc(OCC34CCC(N)(CC3)CC4)c(F)c2)c2cnc(N)nc21 | – | – | 259 | 259
